BindingDB's records for doi:10.1016/0968-0896(96)00107-1 (Hebrew University of Jerusalem, 1996)

By UniProt entry, the sequences of proteins in these tests, tags left out.
UniProt P00533, whole entry: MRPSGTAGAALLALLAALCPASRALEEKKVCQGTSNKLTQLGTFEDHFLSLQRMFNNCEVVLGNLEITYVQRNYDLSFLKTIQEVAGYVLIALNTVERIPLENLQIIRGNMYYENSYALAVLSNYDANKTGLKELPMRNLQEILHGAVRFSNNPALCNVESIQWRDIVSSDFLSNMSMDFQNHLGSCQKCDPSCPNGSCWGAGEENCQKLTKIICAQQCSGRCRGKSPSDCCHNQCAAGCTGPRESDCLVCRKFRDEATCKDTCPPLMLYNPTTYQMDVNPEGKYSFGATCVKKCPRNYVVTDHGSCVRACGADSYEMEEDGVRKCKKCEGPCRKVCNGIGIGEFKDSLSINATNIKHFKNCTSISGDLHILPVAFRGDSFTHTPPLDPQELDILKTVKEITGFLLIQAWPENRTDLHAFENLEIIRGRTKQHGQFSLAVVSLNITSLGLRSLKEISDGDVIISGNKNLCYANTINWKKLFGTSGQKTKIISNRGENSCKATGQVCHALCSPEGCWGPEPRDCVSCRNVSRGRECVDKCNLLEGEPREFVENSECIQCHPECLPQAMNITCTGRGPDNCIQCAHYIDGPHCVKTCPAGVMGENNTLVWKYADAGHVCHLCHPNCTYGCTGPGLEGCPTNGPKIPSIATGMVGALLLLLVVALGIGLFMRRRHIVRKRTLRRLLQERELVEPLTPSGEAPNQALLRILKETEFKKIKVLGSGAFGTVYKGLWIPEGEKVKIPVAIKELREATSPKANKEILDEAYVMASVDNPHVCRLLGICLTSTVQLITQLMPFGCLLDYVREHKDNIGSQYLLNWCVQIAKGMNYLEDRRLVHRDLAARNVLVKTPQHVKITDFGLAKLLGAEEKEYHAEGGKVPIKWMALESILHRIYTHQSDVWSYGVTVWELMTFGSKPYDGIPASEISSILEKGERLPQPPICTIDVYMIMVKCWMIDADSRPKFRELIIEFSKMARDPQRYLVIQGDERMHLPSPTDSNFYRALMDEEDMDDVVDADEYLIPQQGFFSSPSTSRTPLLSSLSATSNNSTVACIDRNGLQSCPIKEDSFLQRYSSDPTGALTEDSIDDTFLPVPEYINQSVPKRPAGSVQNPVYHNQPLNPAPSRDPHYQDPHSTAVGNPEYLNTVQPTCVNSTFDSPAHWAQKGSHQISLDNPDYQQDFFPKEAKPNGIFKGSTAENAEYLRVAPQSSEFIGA

Target: Epidermal growth factor receptor (Homo sapiens, UniProt P00533)
Experiment: EGFR assay
Details: pH 7.6; 22 °C
Method: The activity of EGFR, preactivated with EGF, is measured by its ability to transfer terminal phosphate from [gamma-32P]ATP to poly(GAT) substrate.

Row | IC50 [nM] | SMILES
1 | 900 | COc1cc2ncnc(Nc3cccc(Cl)c3)c2cc1OC
2 | 90 | COc1cc2ncnc(Nc3cccc(F)c3)c2cc1OC
